Experimental data taken from PMC5915086 (Oncotarget, 2018).
Entries after “also recorded” stand apart in the source; their conditions may differ.

What was measured:
PRMT4 [1] = biological target: T1, PRMT4 (Homo sapiens, UniProt Q86X55); assay: Differential static light scattering (DSLS) binding
T1 sequence (Q86X55 1-608): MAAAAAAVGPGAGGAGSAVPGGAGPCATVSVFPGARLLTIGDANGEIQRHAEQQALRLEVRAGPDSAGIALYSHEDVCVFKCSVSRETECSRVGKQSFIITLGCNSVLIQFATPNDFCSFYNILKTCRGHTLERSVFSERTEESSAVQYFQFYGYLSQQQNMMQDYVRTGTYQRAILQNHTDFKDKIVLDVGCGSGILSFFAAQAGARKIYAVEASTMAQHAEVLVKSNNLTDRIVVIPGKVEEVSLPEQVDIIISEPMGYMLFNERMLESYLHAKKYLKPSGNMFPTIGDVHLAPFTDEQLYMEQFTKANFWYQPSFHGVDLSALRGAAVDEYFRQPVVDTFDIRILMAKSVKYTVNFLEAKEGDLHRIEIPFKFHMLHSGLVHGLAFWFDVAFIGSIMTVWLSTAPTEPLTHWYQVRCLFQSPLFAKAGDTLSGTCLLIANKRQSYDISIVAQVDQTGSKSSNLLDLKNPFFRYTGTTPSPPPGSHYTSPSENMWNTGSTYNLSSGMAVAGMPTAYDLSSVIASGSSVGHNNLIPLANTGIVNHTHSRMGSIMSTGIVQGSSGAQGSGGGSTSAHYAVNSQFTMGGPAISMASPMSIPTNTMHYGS

PRMT4 [2] = biological target: T1, PRMT4; assay: PRMT4 methyltransferase scintillation proximity assay; format: biochemical; design: 1–608; made in house

SMILES: COCCN1CCC(c2cc(CN(C)C(=O)c3cccc(Oc4ccccc4)c3)ccn2)CC1 [TP-064N, N-((2-(1-(2-methoxyethyl)piperidin-4-yl)pyridin-4-yl)methyl)-N-methyl-3-phenoxybenzamide]
- binding to PRMT4 by DSLS (PRMT4 [1]): No binding; also recorded: not observed
- effect on PRMT4 activity (PRMT4 [2]): no effect
